Assay results: patent US7919584B1, “Methods and compositions for diagnosis and treatment of asthma” (Arbor Vita Corporation, priority 2005, dated 2011)

Protein sequences, listed by entry. Tags and fused reporters are not part of them. Residues count along the entry.
UniProt Q9BQQ3, 1-110: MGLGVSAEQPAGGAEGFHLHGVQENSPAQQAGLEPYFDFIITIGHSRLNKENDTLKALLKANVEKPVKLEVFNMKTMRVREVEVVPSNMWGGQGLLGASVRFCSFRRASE

How the values were obtained:
Experiment in all cases: modified G assay titration, peptide vs constant GST-PDZ domain fusion
[1] = molecular target: T1, KIAA1284 (Homo sapiens, UniProt Q9ULD6); settings: binding of peptide to KIAA1284
T1 construct: made in house; host or cells: E. coli (DH5α, BL21 or JM109)
T1 sequence (Q9ULD6 with tags, fused parts or gaps): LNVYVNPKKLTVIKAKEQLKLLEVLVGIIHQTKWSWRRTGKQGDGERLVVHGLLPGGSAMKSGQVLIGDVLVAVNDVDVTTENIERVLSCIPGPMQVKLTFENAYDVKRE
Description: (§1) A Nunc Maxisorp 96 well Immunoplate (Nunc cat#62409-002) was coated with 100 μl of 5 μg/ml goat anti-GST polyclonal antibody (Amersham Pharmacia cat#27-457-01) and incubated overnight at 4° C. The plate was blocked by addition of 200 μl Assay Buffer (2% bovine serum albumin in PBS, pH 7.4) for 1 to 2 hours at room temperature, then washed three times in Assay Buffer.
(§2) 50 μl per well of GST-PDZ fusion proteins (5 μg/ml in Assay Buffer), or, as a negative control, GST polypeptide alone, was added to the plate, and incubated for 1 to 2 hours at 4° C.
(§3) Biotinylated peptides were prepared in Assay Buffer, in half the volume required at 40 μM. HRP-Streptavidin (Zymed cat#43-4323) was diluted 1:1000 in another half volume of Assay Buffer, then mixed with the peptides. The peptide-HRP mixtures were incubated for 20 minutes at room temperature. The plate was washed three times with cold PBS, the peptide-HRP mixtures added at 50 μl per well, and the plate was incubated at room temperature for precisely 30 minutes after the addition of the last peptide.
(§4) The plate was then washed five times with room temperature PBS, and developed by addition of 100 μl/well of HRP substrate solution (3,3′,5,5′, tetramethylbensidine (TMB) (Dako cat#S1600)) for a maximum of 30 minutes in the dark at room temperature. The reaction of HRP and its substrate was terminated by addition of 100 μl of 0.18 M H2SO4 (Sigma cat#S1526), and the absorbance of each well of the plate was read at 450 nm.
(§5) Using the modified G assay described in Example 1, several GST-PDZ domain proteins were tested to determine their relative binding strength to the C-terminal sequences of hCLCA1 and mCLCA3. The Tat-hCLCA1 and Tat-CLCA3 peptides described in Example 1 were titrated against a constant amount of GST-PDZ domain fusion protein and the results are shown below.
(§6) Data was fitted to the equation:
(§7) y=100.0/(1+10^((log(m1)-log(m0))*m2)), where m1=EC50, m2=Hill coefficient, and m0=peptide concentration to calculate the EC50 for the binding of the peptides to the PDZ domains.

[2] = molecular target: T2, ZO-3 d1 (Homo sapiens, UniProt O95049); settings: binding of peptide to ZO-3 d1
T2 construct: GST-PDZ fusions were produced that each contain an entire PDZ domain (or multiple PDZ domains); made in house; host or cells: E. coli (DH5α, BL21 or JM109)
T2 sequence (O95049 11-93 limits assumed): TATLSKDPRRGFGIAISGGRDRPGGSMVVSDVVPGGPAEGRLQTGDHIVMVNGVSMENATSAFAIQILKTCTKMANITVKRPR
Description: as §1, §2, §3, §4, §5, §6, §7

[3] = molecular target: T3, GORASP1 d1 (Homo sapiens, UniProt Q9BQQ3); settings: binding of peptide to GORASP1 d1
T3 construct: made in house; host or cells: E. coli (DH5α, BL21 or JM109)
Description: as §1, §2, §3, §4, §5, §6, §7

EC50 [1]: 540 nM | EC50 [2]: 4100 nM | EC50 [3]: 660 nM
Compound: CSCC[C@H](NC(=O)[C@H](CCC(=O)O)NC(=O)[C@H](CCCNC(=N)N)NC(=O)[C@H](CCCNC(=N)N)NC(=O)[C@H](CCCNC(=N)N)NC(=O)[C@H](CCC(N)=O)NC(=O)[C@H](CCCNC(=N)N)NC(=O)[C@H](CCCNC(=N)N)NC(=O)[C@H](CCCCN)NC(=O)[C@H](CCCCN)NC(=O)[C@H](CCCNC(=N)N)NC(=O)CNC(=O)[C@H](Cc1ccc(O)cc1)NC(=O)CCCC[C@@H]1SC[C@@H]2NC(=O)N[C@@H]21)C(=O)N[C@@H](CCC(N)=O)C(=O)N[C@H](C(=O)N[C@H](C(=O)N[C@@H](CC(C)C)C(=O)NCC(=O)N[C@@H](CC(C)C)C(=O)N[C@@H](Cc1c[nH]cn1)C(=O)O)[C@@H](C)O)C(C)C [Tat-CLCA3]
